Measurements taken from patent US20200038399A1, “FORMULATIONS, METHODS, KIT, AND DOSAGE FORMS FOR TREATING BACTERIAL INFECTION” (Motif BioSciences Inc., priority 2016, published 2020).

What was measured:
[1] = test system: Klebsiella pneumoniae ATCC 33495; test: checkerboard synergy assay with iclaprim; assay type: cell-based; details: antibiotic in combination with iclaprim; K. pneumoniae 33495
[2] = test system: Moraxella catarrhalis RA 21; test: checkerboard synergy assay with iclaprim; details: antibiotic in combination with iclaprim; M. catarrhalis RA 21
[3] = test system: Streptococcus pneumoniae ATCC 49619; test: checkerboard synergy assay with iclaprim; details: antibiotic in combination with iclaprim; S. pneumoniae 49619
[4] = test system: Staphylococcus aureus ATCC 25923; test: checkerboard synergy assay with iclaprim; details: antibiotic in combination with iclaprim; S. aureus 25923
[5] = test system: Haemophilus influenzae ATCC 49766; test: checkerboard synergy assay with iclaprim; details: antibiotic in combination with iclaprim; H. influenzae 49766
S. pneumoniae 1/1 = test: checkerboard synergy assay with iclaprim; assay type: cell-based, Streptococcus pneumoniae; details: antibiotic in combination with iclaprim
S. aureus 101 = test: checkerboard synergy assay with iclaprim; assay type: cell-based, Staphylococcus aureus; details: antibiotic in combination with iclaprim
[6] = cited from earlier work

| SMILES | Σ FIC [1] | Σ FIC [2] | Σ FIC [3] | Σ FIC [4] | Σ FIC [5] | Σ FIC (S. pneumoniae 1/1) | Σ FIC (S. aureus 101) | pKa [6] |
| --- | --- | --- | --- | --- | --- | --- | --- | --- |
| Cc1cc(NS(=O)(=O)c2ccc(N)cc2)no1 [Sulfamethoxazole, N1-(5-methyl-3-isoxazolyl)sulfanilamide] | 0.51-1.50 | 0.09-0.56 | 0.05-0.52 | 0.06-0.53 | 0.09-0.52 | 0.16-0.63 | 0.19-0.63 |  |
| CO[C@H]1/C=C/O[C@@]2(C)Oc3c(C)c(O)c4c(O)c(c(/C=N/N5CCN(C)CC5)c(O)c4c3C2=O)NC(=O)/C(C)=C\C=C\[C@H](C)[C@H](O)[C@@H](C)[C@@H](O)[C@@H](C)[C@H](OC(C)=O)[C@@H]1C [Rifampicin] |  |  |  | 0.54-1.25 |  |  | 0.75-1.25 |  |
| COc1cc(Cc2cnc(N)nc2N)cc(OC)c1OC [Trimethoprim] |  |  |  |  |  |  |  | 7.3 |
